Measured values: US8901120B2, “Substituted N-phenylpyrimidin-2-amine analogs as inhibitors of the Axl kinase” (University of Utah Research Foundation, priority 2011, dated 2014)

Assays:
[1] = molecular target: T1, recombinant human Axl kinase (catalytic domain, amino acids 473-894) (Homo sapiens, UniProt P30530); experiment: Axl kinase activity assay (TR-FRET, fluorescein poly-GT substrate); format: biochemical; conditions: 20 μM ATP, 93 ng/ml Axl kinase, 60 min
T1 construct: catalytic domain, amino acids 473-894; purchased Invitrogen Corporation, Carlsbad, Calif
T1 sequence (P30530 473-894): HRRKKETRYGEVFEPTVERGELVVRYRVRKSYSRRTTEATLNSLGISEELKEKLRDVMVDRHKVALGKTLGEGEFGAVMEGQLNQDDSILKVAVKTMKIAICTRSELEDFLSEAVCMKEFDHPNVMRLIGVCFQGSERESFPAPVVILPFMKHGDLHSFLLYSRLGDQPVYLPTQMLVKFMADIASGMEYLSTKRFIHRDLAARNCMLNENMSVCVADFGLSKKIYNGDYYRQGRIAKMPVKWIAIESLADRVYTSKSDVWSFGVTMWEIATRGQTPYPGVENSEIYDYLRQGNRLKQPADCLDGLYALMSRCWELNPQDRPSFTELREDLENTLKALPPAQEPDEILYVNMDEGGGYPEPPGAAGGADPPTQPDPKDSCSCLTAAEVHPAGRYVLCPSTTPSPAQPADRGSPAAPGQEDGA
Procedure: Test compounds were diluted to desired concentrations in kinase reaction buffer (50 mM HEPES pH 7.5, 10 mM MgCl2, 1 mM EGTA, 2 mM DTT, and 0.01% v/v Tween-20) and were briefly incubated with Axl kinase (Invitrogen Corporation, Carlsbad, Calif.). The Axl kinase used was recombinant human Axl kinase (catalytic domain, amino acids 473-894) with a histidine tag. The reaction was initiated by the addition of ATP and fluorescein-labeled poly-GT substrate (poly Glu:Tyr, 4:1 polymer; Invitrogen). Concentration of the various components in the assay (10 μl reaction volume) were: 1% DMSO, 93 ng/ml Axl kinase, 20 μM ATP, and 200 nM fluorescein poly-GT substrate. Following addition of ATP and fluorescein poly-GT substrate, incubation was for 60 min at room temperature, the enzyme reaction is stopped by addition of 10 μl terbium-labeled anti-phosphotyrosine PY20 antibody in EDTA-containing buffer. Final concentration of EDTA and antibody after addition to the reaction is 10 mM and 2 nM, respectively. […] After one hour incubation at room temperature, fluorescence was measured with excitation of 320 nm and dual emission of 495 and 520 urn on an EnVision microplate reader (PerkinElmer). Signal is expressed in terms of a TR-FRET ratio (fluorescence intensity at 520 nm to 495 nm).
(§1) IC50 values are determined using GraphPad Prism 5 software. […]

PSN-1 = experiment: Cell viability assay (ATP-Lite), PSN-1; format: cell-based; conditions: Homo sapiens, PSN1; PSN-1, 96 hours
Procedure: All cell lines were cultured in media as recommended by American Type Culture Collection (“ATCC”; supplemented with 10% fetal bovine serum (“FBS”) and 1% penicillin/streptomycin (100 IU/ml pencillin and 100 μg/ml streptomycin) at 37° C. and 5% CO2. The cell lines used in these studies included those indicated in Table II below.
For cell proliferation assays, 45 μl containing 1000 cells per well were seeded into solid white 384-well plates in appropriate cell growth media containing 10% FBS and incubated overnight at 37° C. and 5% CO2. The following day, test compounds were diluted in serum free growth media to 10× desired concentrations and 5 μl was added to each well. Combined compound and cells were incubated for 96 hours. Following incubation, 40 μl of ATP-Lite solution (PerkinElmer, Inc., Waltham, Massachussetts) was added to each well, incubated for an additional 10 minutes at room temperature and luminescence was measured on an EnVision microplate reader. Percent cell viability for test compounds was calculated by comparing treated wells to appropriate controls (e.g. vehicle treated) included on each plate.
as §1
The ability of compounds to inhibit the viability of cultured cells was determined using the cell viability assay described above. […] IC50 values were determined as described above. […]

SMILES	IC50 [1] [nM]	IC50 (PSN-1) [nM]
CN1CCN(Cc2ccc(Nc3ncc(Cl)c(Nc4ccccc4S(=O)(=O)N(C)C)n3)cc2)CC1 [Compound 4]	53	
CN1CCC(N(C)c2ccc(Nc3ncc(Cl)c(Nc4ccccc4S(=O)(=O)N(C)C)n3)cc2)CC1 [Compound 5]		410
